Key:
Format in all cases: cell-based, human
NCI-H146 SCLC cell line = assay: Antiproliferative activity, NCI-H146; conditions: 3D assay; Calcein AM
[1] = system: GRP mRNA in NCI-H1417 cells; assay: GRP mRNA expression (qRT-PCR), NCI-H1417 cells; conditions: read-out: IC50±SD down-regulation of GRP mRNA
MS-1 hMCC cells = assay: hMCC cell proliferation inhibition (2D, CellTiter-Glo), MS-1; conditions: MS-1, 2D format, 7 days
Procedure: MKL-1 hMCC cells were cultured in vitro in RPMI-1640 culture medium (Life Technologies, Carlsbad, Calif.) containing 100 units/mL penicdlin G sodium and 100 μg/mL streptomycin sulfate (cRPMI) supplemented with 10% fetal bovine serum (FBS). MS-1 hMCC cells were cultured in vitro in cRPMI supplemented with 20% FBS.
Four to six replicates were performed at each concentration.

## COc1ccc(-c2c(-c3ccc(C#N)c(F)c3)nc(N3CCC(N)CC3)n(C)c2=O)cc1F [Compound A]
NCI-H146 SCLC cell line
  IC50: 9.9 µM
[1]
  IC50: 0.0089 ± 0.0046 µM
MS-1 hMCC cells
  IC50: 0.0197 µM
